Laboratory results: article PMC3095642, “New Synthetic Thrombin Inhibitors: Molecular Design and Experimental Verification” (PLoS ONE, 2011)
pIC50, pKi: −log10 of the molar value.

Key:
[1] = target: Human thrombin (Homo sapiens, UniProt P00734); assay: Thrombin induced hydrolysis of specific substrates in buffer system; details: chromogenic substrate (SCHR), tested form: iodide; for pIC50: read-out: Inhibition of thrombin activity (in buffer system) IC50; for pKi: read-out: Inhibition of thrombin activity (in buffer system) Ki, calculated assuming competitive type of inhibition
[2] = target: thrombin generation in normal donor plasma (PPP) (Homo sapiens, UniProt P00734); assay: Thrombin generation test in plasma (endogenous thrombin potential, ETP); details: tested form: iodide; for IC50(ETP)/Ki: ratio of IC50 for ETP reduction in plasma to Ki in buffer system

Row | pIC50 [1] | pKi [1] | IC50(ETP)/Ki [2] | pIC50 ([2]; read-out: IC50 for ETP reduction in plasma, Table S2) | Compound
1 | 6.04 | 7.10 | 341.3 | – | Cc1cc(OCCC[n+]2ccc(N)cc2)cc(OS(=O)(=O)c2ccccc2F)c1
2 | 7.94 | 9.00 | 4000 | 5.40 | Cc1ccc(S(=O)(=O)Oc2cc(C)cc(OCC[n+]3ccc(N)cc3)c2)cc1
